Assay results taken from ChEMBL document CHEMBL1156930 (J Med Chem, 2010).

Target: T1, Galanin receptor type 2 (Homo sapiens) (UniProt O43603)
T1 sequence (whole entry): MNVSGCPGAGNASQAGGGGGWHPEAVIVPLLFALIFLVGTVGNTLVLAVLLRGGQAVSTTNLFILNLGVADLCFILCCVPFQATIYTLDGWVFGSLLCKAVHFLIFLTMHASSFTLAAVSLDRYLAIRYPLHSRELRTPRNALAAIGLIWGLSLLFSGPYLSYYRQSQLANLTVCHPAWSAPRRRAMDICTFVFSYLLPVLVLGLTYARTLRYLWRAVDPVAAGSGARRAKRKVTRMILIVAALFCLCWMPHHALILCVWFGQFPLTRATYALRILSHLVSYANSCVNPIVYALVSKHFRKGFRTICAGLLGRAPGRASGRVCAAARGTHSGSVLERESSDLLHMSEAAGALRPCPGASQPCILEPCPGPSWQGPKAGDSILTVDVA
Format: functional, cell-based
Conditions: CHO-K1, 1.25 uM

With CCCCCCCCCCCCCCCC(=O)NCCCC[C@H](NC(=O)[C@H](CCCCN)NC(=O)[C@H](CCCCN)NC(=O)[C@@H]1CCCN1C(=O)CNC(=O)[C@H](CC(C)C)NC(=O)[C@H](CC(C)C)NC(=O)[C@H](Cc1ccc(O)cc1)NC(=O)CNC(=O)[C@H](C)NC(=O)[C@H](CO)NC(=O)[C@H](CC(N)=O)NC(=O)[C@H](CC(C)C)NC(=O)[C@@H](NC(=O)[C@H](Cc1c[nH]c2ccccc12)NC)[C@@H](C)O)C(=O)N[C@@H](CCCCN)C(N)=O the Activity was 26%.
